# Source: PubChem BioAssay AID1242 (PCMD, 2008)
# This is a selection; strong and weak results do not stand in their true shares. Active and inactive are the calls of the source.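 Rule for the calls: active = inhibition above 30.3% in the primary screen of four-compound pools, then above 30% when the compound was retested; inconclusive = passed the primary limit but could not be retested; inactive = the rest.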
# Test: clotrimazole potentiators killing C. albicans biofilm, primary screen, 4-compound mixtures (AID 1242);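 note: compounds exposed to preformed 24 h biofilms for 48 h; 0% = untreated biofilm control and 100% = clotrimazole plus chlorhexidine kill blank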
# Conditions: C. albicans biofilm persisters + clotrimazole, fluorescence viability; primary screen in compound mixtures of four per well; at 7.6 µM; active compounds read high
row,SMILES,inhibition
1,CC(C)(C)C(=O)NC(Sc1ncccn1)C(Cl)(Cl)Cl (configuration not stated),inactive: 28.4%
2,O=[As](O)(c1ccccc1Br)c1ccccc1Br,inactive: 19.6%
3,CC(C)/C=N\N=C(\N)N[N+](=O)[O-],inactive: 0.82%
4,COc1ccccc1OP(C)(=O)Nc1cccc(Br)c1 (configuration not stated),inactive: 14.8%
5,O=[As](O)(O)c1cccnc1,inactive: 20%
6,COc1cc(C(=O)NCC2(N3CCOCC3)CCCCC2)cc(Cl)c1OC(C)C,inactive: 3.64%
7,O=C(OC1CN2CCC1CC2)c1ccc(Cl)cc1 (configuration not stated),inactive: 7.43%
8,CCOC(=O)c1ccc(NP(C)(=O)Oc2cc(C)cc(C)c2)cc1 (configuration not stated),inactive: 13%
9,O=[As](O)(c1cccc(O)c1)c1cccc(O)c1,inactive: 23.9%
10,CCCOP(=S)(Nc1nc(N)cc(=O)[nH]1)OCCC,inactive: 27.2%
11,Cc1ccc(NCCc2c([N+](=O)[O-])cc([N+](=O)[O-])cc2[N+](=O)[O-])cc1,inactive: 5.9%
12,Nc1cccc2c([As](=O)(O)O)cccc12,inactive: 17.9%
13,CP(=O)(Nc1cccc(Br)c1)Oc1ccccc1 (configuration not stated),inactive: 12.1%
14,CCOP(=O)(Nc1cccc2ccccc12)OCC,inactive: 20.4%
15,CS(=O)(=O)c1cc([N+](=O)[O-])c2no[n+]([O-])c2c1,inactive: 18.6%
16,O=P(Nc1nccs1)(Oc1ccccc1)Oc1ccccc1,inactive: 13%
17,O=C(O)c1cccc(Nc2c([N+](=O)[O-])cc([N+](=O)[O-])cc2[N+](=O)[O-])c1,inactive: -4.57%
18,Nc1ccccc1[As](=O)(O)c1ccccc1,inactive: 11.6%
19,O=C(O)COc1ccc([As](=O)(O)O)cc1[N+](=O)[O-],inactive: 0.67%
20,NC(=O)Nc1ccc([As](=O)(O)O)cc1,inactive: 12.4%
21,CC1=NCCc2c1[nH]c1ccccc21.O=[N+]([O-])c1cc([N+](=O)[O-])c(O)c([N+](=O)[O-])c1,inactive: 5.62%
22,CN(C(=O)Cc1ccccc1)[C@@H]1CC[C@]2(CCCO2)C[C@H]1N1CCCC1,inactive: 10.8%
